Measurements from PubChem BioAssay AID583 (Sanford-Burnham Center for Chemical Genomics, 2007).
This is a selection; strong and weak results do not stand in their true shares. The source made the active and inactive calls. Rule as the data show it: active = displacement above about 50%; inactive = the rest.

Sequences of proteins named here, by UniProt entry; tags and fusion partners are left off.
UniProt P0DMV8, whole entry, looked up: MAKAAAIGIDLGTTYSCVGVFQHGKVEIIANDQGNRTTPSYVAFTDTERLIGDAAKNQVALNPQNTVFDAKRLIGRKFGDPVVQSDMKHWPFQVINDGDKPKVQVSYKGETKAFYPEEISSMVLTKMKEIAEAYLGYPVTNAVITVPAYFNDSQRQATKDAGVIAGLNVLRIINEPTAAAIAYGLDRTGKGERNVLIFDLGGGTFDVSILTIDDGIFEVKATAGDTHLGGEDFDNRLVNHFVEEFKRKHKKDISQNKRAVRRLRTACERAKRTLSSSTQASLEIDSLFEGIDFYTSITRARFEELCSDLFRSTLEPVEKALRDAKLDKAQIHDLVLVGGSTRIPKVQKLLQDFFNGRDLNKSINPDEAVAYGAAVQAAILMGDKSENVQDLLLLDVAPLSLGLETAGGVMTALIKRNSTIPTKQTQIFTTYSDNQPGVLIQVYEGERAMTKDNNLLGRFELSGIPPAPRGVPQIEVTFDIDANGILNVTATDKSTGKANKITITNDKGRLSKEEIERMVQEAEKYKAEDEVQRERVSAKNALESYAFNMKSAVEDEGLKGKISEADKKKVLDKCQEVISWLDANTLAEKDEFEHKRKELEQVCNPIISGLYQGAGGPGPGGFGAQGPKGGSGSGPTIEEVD

target: Heat shock 70 kDa protein 1A (Homo sapiens) (UniProt P0DMV8); test: small molecules displacing fluorescent ligand from Hsp70 – biochemical, fluorescence polarization, primary screen (AID 583); conditions: Hsp70 fluorescence polarization probe displacement, mP; at 20 µM; active compounds read high;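 also: plate controls were vehicle for no effect and reference ligand for full effect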

Row | SMILES | displacement
1 | Cc1c2non([O-])c-2c(C)[n+](=O)[n+]1[O-] | inactive: -3.3%
2 | Oc1ccccc1CNc1ccccn1 | inactive: 4.1%
3 | CCCCOP(=O)(OCCCC)SC | inactive: -2.6%
4 | CCOP(=O)(Nc1ccccc1)OCC | inactive: -2.6%
5 | CC1CCN(C(=O)Oc2c(Cl)cc(Cl)c3cccnc23)CC1 | inactive: 5.2%
6 | O=[N+]([O-])c1cccc2n[nH]nc12 | inactive: 0.8%
7 | CCc1nc2c(n1)c1c(non1O)c1c2no[n+]1[O-] | inactive: 0%
8 | O=P(Nc1nccs1)(c1ccccc1)c1ccccc1 | inactive: -8%
9 | c1nnnn1CCn1cnnn1 | inactive: -1.9%
10 | CCOC(=O)NC(Sc1nc2ccccc2o1)C(Cl)(Cl)Cl (configuration not stated) | inactive: 3.9%
11 | O=C(OC1CN2CCC1CC2)c1cccc(Cl)c1 (configuration not stated) | inactive: -3.8%
12 | CCCCSP(=O)(OCC(C)C)OCC(C)C | inactive: 6.4%
13 | O=CNC(Sc1nc2ccccc2o1)C(Cl)(Cl)Cl (configuration not stated) | inactive: 2%
14 | COC(=O)c1cc2c(s1)N=C(c1ccccc1)N(C)P2(=O)N1CCOCC1 (configuration not stated) | inactive: -2%
15 | COC(=O)NC(Sc1ccc(Cl)cc1)C(Cl)Cl (configuration not stated) | inactive: 5.7%
16 | O=P1(Nc2nc3ccc(Cl)cc3s2)COc2ccccc2O1 (configuration not stated) | inactive: 4.4%
17 | Cc1cccc(OCC(=O)OC2CN3CCC2CC3)c1 (configuration not stated) | inactive: 1.7%
18 | CCOP1(=S)c2c(C)nn(CCC#N)c2N=C(c2ccc(F)cc2)N1C (configuration not stated) | inactive: 0.8%
19 | O=P(Nc1nccs1)(c1ccccc1)c1nc2ccccc2s1 (configuration not stated) | inactive: -2.3%

Row | SMILES | displacement
20 | CCOP1(=S)c2c(C)nn(CCC#N)c2N=C(c2ccccc2F)N1C (configuration not stated) | inactive: 5.2%
21 | O=P1(Nc2ncccn2)COc2ccccc2OC1 | inactive: 1.9%
22 | Cc1ccc(OCC(=O)OC2CN3CCC2CC3)cc1 (configuration not stated) | inactive: 4.4%
23 | O=P1(Nc2ccc(Br)cn2)COc2ccccc2OC1 | inactive: 0.2%
24 | Cc1ccc(SC(NC(=O)c2ccccc2)C(Cl)Cl)cc1 (configuration not stated) | inactive: -4.8%
25 | Cc1nn(-c2ccccc2)c2c1P(=O)(N1CCOCC1)N(C)C(c1ccccc1)=N2 (configuration not stated) | inactive: 6.1%
26 | CC1(CBr)Cn2c(nc3ccccc3c2=O)S1 (configuration not stated) | inactive: -1.6%
27 | O=P1(Nc2ccccn2)COc2ccccc2OC1 | inactive: 5%
28 | Clc1n[nH]nc1-c1nn[nH][15n]1 | inactive: 16.5%
29 | Cc1cc(C)nc(SC(NC(=O)c2ccccc2)C(Cl)(Cl)Cl)n1 (configuration not stated) | inactive: 2.4%
30 | CCC(C)N(CC(C)C)C(=S)SC(NC(C)=O)C(Cl)(Cl)Cl (configuration not stated) | inactive: 3.1%
31 | COC(=O)c1ccc(OP(=O)(Oc2ccc(Cl)cc2C)SCC(C)C)cc1 (configuration not stated) | inactive: 0.2%
32 | COP1(=S)c2c(C)nn(CCC#N)c2N=C(c2ccc(F)cc2)N1C (configuration not stated) | inactive: -0.5%
33 | O=C(COc1ccccc1)OC1CN2CCC1CC2 (configuration not stated) | inactive: 1.6%
34 | ClCCSc1nnc(-c2cccnc2)o1 | inactive: 12.1%
35 | O=C(NC(SC1=NCCS1)C(Cl)(Cl)Cl)c1ccc(I)cc1 (configuration not stated) | inactive: -5.5%
36 | O=C(CF)NC(Sc1ccc(Cl)cc1)C(Cl)(Cl)Cl (configuration not stated) | inactive: -8.8%
37 | O=C(OC1CN2CCC1CC2)C12CC3CC(CC(C3)C1)C2 (configuration not stated) | inactive: -3.7%
